Earlier results, collected in patent publication US20260265329A1, “POLYPEPTIDE AND DERIVATIVE THEREOF, COMPOSITION, AND USE THEREOF” (HANGZHOU SCIWIND BIOSCIENCES CO., LTD., priority 2023, published 2026).

Conditions: in vivo, background statement; cited from earlier work

**Q.** Which half-life does the source give for `CC[C@H](C)[C@H](NC(=O)[C@@H]1CCCN1C(=O)CNC(=O)[C@H](Cc1ccccc1)NC(=O)[C@H](CC(N)=O)NC(=O)[C@H](CC(N)=O)NC(=O)[C@H](CO)NC(=O)[C@H](CO)NC(=O)[C@H](Cc1c[nH]cn1)NC(=O)[C@@H](NC(=O)[C@H](CC(C)C)NC(=O)[C@H](Cc1ccccc1)NC(=O)[C@H](CC(N)=O)NC(=O)[C@H](C)NC(=O)[C@H](CC(C)C)NC(=O)[C@H](CCCNC(=N)N)NC(=O)[C@H](CCC(N)=O)NC(=O)[C@@H](NC(=O)[C@H](C)NC(=O)[C@@H]1CSSC[C@H](NC(=O)[C@@H](N)CCCCN)C(=O)N[C@@H](CC(N)=O)C(=O)N[C@@H]([C@@H](C)O)C(=O)N[C@@H](C)C(=O)N[C@@H]([C@@H](C)O)C(=O)N1)[C@@H](C)O)C(C)C)C(=O)N[C@@H](CC(C)C)C(=O)N1CCC[C@H]1C(=O)N1CCC[C@H]1C(=O)N[C@H](C(=O)N[C@@H](CC(N)=O)C(=O)N[C@H](C(=O)NCC(=O)N[C@@H](CO)C(=O)N[C@@H](CC(N)=O)C(=O)N[C@H](C(=O)N[C@@H](Cc1ccc(O)cc1)C(N)=O)[C@@H](C)O)C(C)C)[C@@H](C)O` [Pramlintide] here?
**A.** Its half-life is “less than an hour”.
